For one series, the system named is HCT116. Format: cell-based. The following applies: 72 hours, 10% serum. The source says: (§1) To further establish the impact of the above modification in making cleaner “drug” like compounds, we profiled a set of compounds of the invention in cellular proliferation assays (Table 3).
The subject of the next series is p53 null Ca Ski. The format is cell-based. The note with it: 72 hours, 10% serum.
From the text: as §1

Series [1] in a line: Circular dichroism (CD) helicity. The format is physicochemical. As to the method:
A total of 5 μL of the 10 mM stock peptide was mixed with 45 μL of 100% methanol and dried for 2 hours in the SpeedVac™ concentrator (Thermo Scientific). The dried peptide was reconstituted in a buffer (1 mM Hepes pH 7.4 and 5% methanol) to a concentration of 1 mM. The peptide sample was placed in a quartz cuvette with a path length of 0.2 cm. The peptide concentration was determined by the absorbance of the peptide at […]. The CD spectrum was recorded from 300 to 190 nm using the Chirascan-plus qCD machine (Applied Photophysics, Surrey, UK), at 25° C. All experiments were done in duplicates. The CD spectrum was converted to mean residue ellipticity before deconvolution and estimation of the secondary structure components of the peptide using the CDNN software (distributed by Applied Photophysics). Measurements were taken at least twice and were reported as arithmetic means.
A general note: Circular dichroism is the unequal absorption of left and right circularly polarised light.

Series [2] has as its system p53 responsive β-lactamase reporter in HCT116 cells. The series can be described thus: p53 beta-lactamase reporter gene cellular functional assay. Format: cell-based. (Reporter assays use an easily measured gene product as a stand-in for the process of interest.)
Series [3] concerns Jump-In T-REx CHO-K1 BLA cells. The series can be described thus: Tetracycline beta-lactamase reporter gene cellular assay (counterscreen). The format is cell-based.
The mark [4] stands for this setting: read-out: p53 activity EC50 (0% FBS, 4 h), 0% FBS, 4 h.
Where [5] appears, read: read-out: p53 activity EC50 (10% FBS, 16 h), 10% FBS, 16 h.
Setting [6] is: read-out: Counter screen EC50 (0% FBS, 4 h), 0% FBS, 4 h.
Where [7] appears, read: read-out: Counter screen EC50 (10% FBS, 16 h), 10% FBS, 16 h.

Where two headings read alike, the source gives them in different places. A value given as a limit tells only on which side of the number the result lay.

For the compound `CC(=O)N[C@@H](C(=O)N[C@H](C)C(=O)N[C@H](Cc1c[nH]c2cc(F)ccc12)C(=O)N[C@H](Cc1ccc(O)cc1)C(=O)N[C@@]1(C)CCCC#CC#CCCCC[C@](C)(C(=O)N[C@H](C)C(=O)N[C@H](C)C(=O)N[C@H](C)C(=O)N[C@H](C)C(=O)N[C@H](C)C(=O)N[C@H](C)C(N)=O)NC(=O)[C@@H](CC(C)C)NC(=O)[C@@H](CC(C)C)NC(=O)[C@@H](CCC(N)=O)NC(=O)[C@@H](CCC(=O)O)NC(=O)[C@@H](Cc2ccc(C(F)(F)F)cc2)NC(=O)[C@@H](CC(N)=O)NC1=O)[C@H](C)O` [Compound 9, Acetyl-^DPMI-δ-(5-12 alkynestaple) (D-K9D-Q, 6x(D-Ala)polypeptidetail)-NH2], the “HCT116 proliferation % Max” value in the series with HCT116 was 73%. Moreover, the EC50 was 0.65 µM with HCT116 (read-out: HCT116 proliferation EC50); 3.97 µM in series [2] (setting [4]); 0.3 µM in series [2] (setting [5]); more than 50 µM in series [3] (setting [6]); more than 50 µM in series [3] (setting [7]). The “p53 null Ca Ski proliferation % Max (inhibition at maximum concentration)” value in the series with p53 null Ca Ski is reported as −0.5%^. Moreover, the “CD (% helicity)” value in series [1] was determined as 38.9%. The “overall improvement of cellular activity compared to parent peptide” value in series [2] (10% serum) is reported as 100 fold. Also, the “HPLC LogD” value in “HPLC LogD” worked out at 2.12.
The chromatographic logD is a lipophilicity value derived from retention on a column. Consider `CC(C)C[C@@H](NC(=O)[C@@]1(C)CCCC=CCCC[C@@](C)(NC(=O)[C@@H](C)NC(=O)[C@@H](Cc2ccc(O)cc2)NC(=O)[C@@H](Cc2c[nH]c3cc(F)ccc23)NC(=O)[C@@H](C)NC(=O)[C@H](N)[C@H](C)O)C(=O)N[C@H](Cc2ccc(C(F)(F)F)cc2)C(=O)N[C@H](CCC(=O)O)C(=O)N[C@H](CCCCN)C(=O)N1)C(=O)N[C@H](CCCNC(=N)N)C(N)=O` [Compound 1, ^DPMI-δ-(6-10 olefinstaple)-NH2, reference compound], for which the “CD (% helicity)” value in series [1] is given as 38.6%. Moreover, the EC50 in series [2] (setting [4]) is 10.1 µM; in series [2] (setting [5]), more than 50 µM; in series [3] (setting [6]) it was 10.7 µM; in series [3] (setting [7]), more than 50 µM. Further, in “HPLC LogD”, the chromatographic logD worked out at 2.26.
`CC(=O)N[C@@H](C(=O)N[C@H](C)C(=O)N[C@H](Cc1c[nH]c2cc(F)ccc12)C(=O)N[C@H](Cc1ccc(O)cc1)C(=O)N[C@@]1(C)CCCC#CC#CCCCC[C@](C)(C(=O)N[C@H](CCC(=O)O)C(=O)N[C@H](C)C(=O)N[C@H](C)C(=O)N[C@H](C)C(=O)N[C@H](C)C(=O)N[C@H](C)C(N)=O)NC(=O)[C@@H](CC(C)C)NC(=O)[C@@H](CC(C)C)NC(=O)[C@@H](CCC(N)=O)NC(=O)[C@@H](CCC(=O)O)NC(=O)[C@@H](Cc2ccc(C(F)(F)F)cc2)NC(=O)[C@@H](CC(N)=O)NC1=O)[C@H](C)O` [Compound 10, Acetyl-^DPMI-δ-(5-12 alkynestaple) (D-K9D-Q, (D-E)-5x(D-A)polypeptidetail)-NH2]: the “CD (% helicity)” value in series [1] is on record as 38.9%. For the same compound, the EC50 in series [2] (setting [4]) was 9.47 µM; in series [2] (setting [5]) it was 5 µM; in series [3] (setting [6]) it was more than 50 µM; in series [3] (setting [7]) it was more than 50 µM.

Source of the values: US20250042961A1, “P53 PEPTIDOMIMETIC MACROCYCLES” (MERCK SHARP & DOHME LLC, priority 2021, published 2025).
